Laboratory results: ChEMBL document CHEMBL4813983, “Addition of hydrophobic side chains improve the apoptosis inducibility of the human glyoxalase I inhibitor, TLSC702” (Bioorg Med Chem Lett, 2021)

The chains behind the UniProt entries cited, without tags or fusion partners. Where a name states a change or a piece, a line headed by the entry shows the natural chain unless it says otherwise.
UniProt Q04760: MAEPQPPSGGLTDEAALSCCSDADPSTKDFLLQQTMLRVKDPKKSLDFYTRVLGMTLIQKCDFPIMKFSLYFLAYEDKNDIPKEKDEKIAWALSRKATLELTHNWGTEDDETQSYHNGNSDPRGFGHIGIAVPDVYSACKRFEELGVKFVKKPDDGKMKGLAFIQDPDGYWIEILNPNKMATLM

Target: Lactoylglutathione lyase (Homo sapiens, UniProt Q04760)
Assay: Inhibition of glyoxylase-1 in human HL60 cells assessed as increase in methylglyoxal level in culture medium at 200 uM measured after 24 hrs by HPLC-UV analysis relative to control
Format: cell-based
Conditions: HL-60

CCOc1cc(/C=C(\CC(=O)O)c2nc3ccccc3[nH]2)ccc1OCC(=O)Nc1ccccc1
fold change (FC): 6
